Measured values from patent publication US20220142566A1, “CLOSED-LOOP DETECTION AND TREATMENT OF RADIATION AND TOXIC AGENTS” (published 2022).

Test system: Yorkshire pigs
Assay: white blood cell counts after delivery of sargramostim in vivo
Details: FIG. 17

sargramostim
WBC count over time (effectiveness of delivery) (single 250 microgram dose into the gastric wall of anesthetized pigs via drug release component of endoscopically placed SOMA article, CBCs daily for 7 days): effective
WBC count compared with a dose administered subcutaneously (single 250 microgram dose via SOMA drug release component vs single 250 microgram subcutaneous dose): not identical to a dose administered subcutaneously
